# Read-outs that look alike come from different tables or passages of the source.
# Sequences of proteins named here, by UniProt entry; tags and fusion partners are left off. Residues count along the entry.
# UniProt P14740, 37-767 limits assumed: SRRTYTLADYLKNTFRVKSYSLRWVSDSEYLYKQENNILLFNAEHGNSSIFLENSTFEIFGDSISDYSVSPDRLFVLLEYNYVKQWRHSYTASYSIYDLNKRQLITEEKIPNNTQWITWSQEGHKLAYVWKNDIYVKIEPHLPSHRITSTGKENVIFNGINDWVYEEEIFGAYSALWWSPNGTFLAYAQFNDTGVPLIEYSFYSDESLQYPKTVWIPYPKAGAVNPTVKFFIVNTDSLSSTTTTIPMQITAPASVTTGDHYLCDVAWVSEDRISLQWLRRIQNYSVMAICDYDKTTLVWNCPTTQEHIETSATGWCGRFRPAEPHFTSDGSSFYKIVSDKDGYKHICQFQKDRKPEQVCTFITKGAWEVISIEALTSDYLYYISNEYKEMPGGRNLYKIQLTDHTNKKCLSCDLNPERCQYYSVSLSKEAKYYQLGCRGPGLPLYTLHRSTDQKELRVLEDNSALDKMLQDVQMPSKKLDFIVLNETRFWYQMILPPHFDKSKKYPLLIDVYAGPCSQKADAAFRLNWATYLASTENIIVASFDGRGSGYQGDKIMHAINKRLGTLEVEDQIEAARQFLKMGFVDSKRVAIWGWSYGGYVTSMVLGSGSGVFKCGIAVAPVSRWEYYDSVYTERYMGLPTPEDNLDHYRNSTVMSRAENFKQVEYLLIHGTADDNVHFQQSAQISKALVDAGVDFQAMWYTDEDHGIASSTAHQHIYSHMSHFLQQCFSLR
# Legend:
# [1] = target: T1, plasma DPP-IV (Rattus norvegicus, UniProt P14740); assay: in vivo; conditions: po
# [2] = system: Zucker fa/fa rats; assay: Single oral dose before oral glucose challenge, Zucker Fa/Fa rats (Example 10); type: in vivo
# From the text: The data shown in FIG. 15 are mean values from 6 rats per treatment.
# [3] = target: T1, plasma DPP-IV; conditions: 10 μmol/kg oral
# [4] = system: DIO rats; assay: Single oral dose before oral glucose challenge, DIO rats (Example 10); type: in vivo
# From the text: The data shown in FIG. 16A are mean values from 10 rats per treatment.
# The data shown in FIG. 16B are mean values from 10 rats per treatment.
# [5] = system: human bone marrow stromal cells; assay: G-CSF supernatant levels in human bone marrow stromal cell cultures; type: cell-based; conditions: 1 to 10^4 nM, 24 hours
# Description: Human bone marrow stromal cell cultures. Samples of normal human bone marrow were purchased from Cambrex Bioproducts (Walkersville, Md.) and mononuclear cells were purified over Ficoll-Hypaque (Nycomed, Oslo, Norway). Human stromal layers were established by seeding 4×10^7 mononuclear cells into T75 flasks (Corning) containing 20 ml MyeloCult medium (Stem Cell Technologies, Vancouver, BC) supplemented with 10^−6 M hydrocortisone (Sigma) and incubation at 37° C. in 100% humidified 5% CO2 in air. After one week, half the medium was exchanged, and the cultures incubated for approximately one week more, after which time, a semi-confluent cell layer was formed. Stromal cells were harvested by trypsinization using standard technique and 10^5 cells/well were seeded in multi-well plates in 1 ml of fully supplemented DMEM (InVitrogen, Carlsbad, Calif.). […] Multiwell cultures without the addition of amino boronic dipeptides served as controls. […] Supernatant concentrations of human G-CSF were determined by Quantikine enzyme-linked immunosorbent assay (ELISA; R&D Systems, Minneapolis, Minn.) according to the manufacturer's instructions. […] The effect of each amino boronic dipeptide on the level of supernatant G-CSF was determined by calculating a stimulation index (SI): SI=(mean G-CSF concentration in culture with amino boronic dipeptide)/(mean G-CSF concentration in control culture).
# [6] = target: T2, serum DPP-IV (Rattus norvegicus, UniProt P14740); assay: Serum DPP-IV inhibition in Lewis rats; type: in vivo; conditions: single oral administration, 2 hours
# T2 construct: from tissue; host or cells: serum of Lewis rats dosed with the compounds
# Description: Assay of serum DPP-IV inhibition in vivo. Varying doses (0.02, 0.2, 2.0, 20.0 μg/mouse) of Glu-boroPro dissolved in normal saline or the saline vehicle alone were administered to BALB/c mice by oral gavage. Each mouse received a single administration of Glu-boroPro or saline, and blood samples were withdrawn from mice 2 hours later. […]. DPP-IV activity was determined by reaction of 10 μl serum with 90 μl of 0.11 mM Ala-Pro-AFC (Enzyme System Products, Dublin, Calif.) in 50 mM HEPES/Na buffer pH 7.6, 140 mM NaCl. Assays were incubated for 30 minutes, stopped and fluorometric measurements made as described in Example 1. […].
# [7] = system: Zucker Diabetic Fatty (ZDF) rats; assay: 6 week glycemic control study in Zucker Diabetic Fatty rats; type: in vivo; conditions: termination of study
# Description: The design of the 6 week long study is depicted in FIG. 8. 60 male Zucker Diabetic Fatty (ZDF) rats (5 weeks of age) were obtained from Charles River Labs. The animals are housed singly and allowed to acclimatize for 1 week before the initiation of the study. 24-hour food intake and body weight was measured gravimetrically twice weekly from the start of housing. HbA1C levels were measured at Day 0, 7, 14, 28 and 46. OGTT was administered on Day 2-3, 15 minutes after the administration of the drugs. OGTT was administered again at the end of the study but in this case, drugs were given 15 hours prior to the OGTT. The 24-hour glucose profile was monitored at day 14-15 of the study.
# The insulin sensitivity index was calculated at the termination of the study according to the method described by Matsuda and DeFronzo (Diabetes Care. 1999 Sep.;22(9):1462-70). […] There was a dose response relationship for the Glu-boroPro group and the improvements in the insulin sensitivity index.
smiles,measurement,setting,value
"N[C@@H](CCC(=O)O)C(=O)N1CCC[C@H]1B(O)O [Glu-boroPro, glutamic acid boroproline]",remaining activity at 10 µmol/kg,"[1]; read-out: plasma DPP-IV activity, % of control values, 10 μmol/kg oral, t24hours",11%
same,remaining activity at 10 µmol/kg,"[1]; read-out: plasma DPP-IV activity, % of control values, 10 μmol/kg oral, t48hours",25%
same,effect on insulin and GLP-1 responses relative to NVP-LAF237,[2],equivalent to that achieved with an optimal dose of the cyano-pyrrolidine (CP) inhibitor of DPP-IV (NVP-LAF237)
same,"levels of un-degraded, active form of GLP-1",[2]; single oral dose 15 minutes prior to oral glucose,increased levels
same,inhibition of plasma DPP-IV activity,[3]; at t5min,Marked inhibition
same,inhibition of plasma DPP-IV activity,[3]; by t0,maximal inhibition
same,effect on insulin response relative to NVP-LAF237,[4],equivalent to that achieved with an optimal dose of the cyano-pyrrolidine (CP) inhibitor of DPP-IV (NVP-LAF237)
same,effect on insulin secretion AUC relative to NVP-LAF237,[4],equivalent to that achieved with an optimal dose of the cyano-pyrrolidine (CP) inhibitor of DPP-IV (NVP-LAF237)
same,supernatant G-CSF level (stimulation index),[5],did not appear to stimulate increased levels of G-CSF
same,ED50,"[6]; rat, read-out: ID50 (dose causing 50% reduction in serum DPP-IV activity)",0.095 mg/kg
same,ID50 (dose causing 50% reduction in serum DPP-IV activity),[6],0.095 mg/kg
same,insulin sensitivity index,[7]; 3 micromole/kg,significant improvement
same,insulin sensitivity index,[7]; 10 micromole/kg,significant improvement
